Measurements from patent publication US10544130B2, “Metallo-beta-lactamase inhibitors” (priority 2015, dated 2020).

System: Pseudomonas aeruginosa PAO1 MB9798 (efflux+, IMP-1)
Settings: ratio MITC95 PA 9798/MITC95 PA 9799; imipenem at 2 μg/mL

## Nc1nc2c(-c3ccc(S(=O)(=O)N[C@H]4C[C@H](N)C4)c(S(N)(=O)=O)c3-c3nnn[nH]3)cccc2s1 [Example 71, 4-(2-amino-1,3-benzothiazol-4-yl)-N^1-(trans-3-aminocyclobutyl)-3-(1H-tetrazol-5-yl)benzene-1,2-disulfonamide]
  Efflux ratio: 1.00
